For orientation: EC50 means the concentration needed to bring the measured effect to its halfway point. For orientation: Ki means the dissociation constant of the complex between target and ligand, obtained from inhibition or displacement.

For 1 compound, EC50 and Ki results are on record in BindingDB's records for US9598447.

In this assay the target is Nociceptin receptor (Homo sapiens, UniProt P41146). The assay is described as follows: In Vitro ORL-1 Receptor Binding Assay.

`O=c1c(P(=O)(O)O)nc2ccccc2n1[C@H]1C[C@H]2CC[C@@H](C1)N2C12CC3CC(CC1C3)C2` had an EC50 of 197 nM and a Ki of 58.5 nM.
